Measurements reported in patent US9295682B2, “Adjuvant immunotherapy for the preventive, curative or palliative treatment of chronic systemic diseases such as cancer, of clinical manifestations associated with diseases like cachexia and correction of adverse effects of drugs such as immunosuppression, neutropenia and lymphopenia, comprising …” (priority 2009, dated 2016).

Test system: Lewis lung carcinoma (3LL)
Assay: Lewis lung carcinoma (3LL) survival, 1st experiment (Table A)
Format: in vivo, C57B1/6 female mice
Conditions: 100 days; IM-2 0.5 mg/kg/day alone, IM-2 0.5 mg/kg + Il-2 0.05 μg/animal, or IL-2 0.1 μg/animal alone; i.p., 3 weekly cycles
Procedure: Treatments: All treatments began 24 hours after the inoculation of cancer cells.
Observation period: The animals were evaluated during an observation period of 100 days in the survival experiment.
Two batches of 20 mice (C57BL/6) each one, inoculated with 3 LL cells (6×10^5 cells/animal) were treated only with daily intraperitoneal injections of the biological response modifier (proteic aggregate of ammonium and magnesium phospholinoleate-palmitoleate anhydride), as follows: 5.0 mg/kg/daily dose (Table A—Group 1—IM-1) and 0.5 mg/kg/daily dose (Table A—Group 2—IM 2), applied in three 3 weekly cycles. The animals were followed up for 100 days.
The animals were followed up for 100 days.
The animals were followed up for 100 days, and the number of survivors was expressed in percentage.

Interleukin 2 (IL-2)
% Survivors: 50%
